The data set can be described thus: Zeta potential of particulate composites modified with PEG-peptide-Ad agents (Example 49). The class given is physicochemical. The note with it: 12/pCMV-Luc, 2 CD:1 PEG.

With “Glucose-PEG3400-CAEAEAEAE-Ad [Glu-PEG-Pep-Ad]”, the “zeta potential (sign)” value is given as “negative”.
